Amino acid sequences for entries named in this document (tags omitted). Residues count along the entry.
UniProt P29317, 24-537: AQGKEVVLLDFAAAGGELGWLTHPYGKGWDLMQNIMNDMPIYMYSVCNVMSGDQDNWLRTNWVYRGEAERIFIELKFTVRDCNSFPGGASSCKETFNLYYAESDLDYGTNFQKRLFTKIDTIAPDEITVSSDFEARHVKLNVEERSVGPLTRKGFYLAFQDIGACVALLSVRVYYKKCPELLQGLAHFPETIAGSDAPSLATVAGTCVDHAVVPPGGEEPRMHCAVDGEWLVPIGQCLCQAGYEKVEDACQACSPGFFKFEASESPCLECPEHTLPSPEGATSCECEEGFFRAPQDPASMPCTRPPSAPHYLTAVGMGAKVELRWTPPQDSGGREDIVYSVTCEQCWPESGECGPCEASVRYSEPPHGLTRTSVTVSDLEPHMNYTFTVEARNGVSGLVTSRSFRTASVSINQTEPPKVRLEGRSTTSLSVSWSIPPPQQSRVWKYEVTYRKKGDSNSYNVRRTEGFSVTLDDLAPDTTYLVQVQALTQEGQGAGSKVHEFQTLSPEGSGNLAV

In patent publication US20240000957A1 (published 2024):

Biological target: T1, Human EphA2 (Ecto), C-terminal polyHis (Human, UniProt P29317 24-537)
T1 construct: extracellular domain; R&D systems 3035-A2 or in-house
Test: FP competition vs Reference Compound C

Binder	Ki [nM]
RHDCPLVNPLCLLPGWTCA (TATA scaffold on the 3 Cys) [Compound 80]	7.11
ACPLVNPLCLAPGWTCSRS (TATA scaffold on the 3 Cys) [Compound 83]	7.05
